Measurements as given in ChEMBL document CHEMBL5506043, “A β-Carboline Derivate PAD4 Inhibitor Reshapes Neutrophil Phenotype and Improves the Tumor Immune Microenvironment against Triple-Negative Breast Cancer” (J Med Chem, 2024).

Test: Clearance in male Sprague-Dawley rat at 3.5 mg/kg, iv by LC-MS/MS analysis
Format: ADME, organism-based
Settings: in vivo

CL: 571.87 L/h/kg
SMILES: CN(C)c1ccc2cc(C(=O)N[C@@H](CCCNC(=N)CCl)C(=O)NCc3ccccc3)ccc2c1
